We go through four substances from patent publication US10076576B2, “Minimally toxic prodrugs” (priority 2012, dated 2018).

Data set [1] is described as follows: Stability in citrated human plasma. Conditions: 5 hours incubation at 37° C. in citrated human plasma (pH7), 50 μM. The protocol:
The drug conjugates (50 μM) were mixed with human plasma and incubated for 5 hours at 37° C. in a water bath. […] Supernatant was collected.

Data set [2] can be described thus: Stability in citrated human blood. Conditions: 5 hours incubation at 37° C. in citrated human blood, 50 μM.

As for PhAc-TSGP-doxorubicin, in data set [1], the “% metabolites released: Dox” value stood at 4%, the “% metabolites released: GP-dox” value turned out to be 4%, the “% metabolites released: P-Dox” value turned out to be 0% and the total % metabolites was determined as 8%.

Take PhAc-DLGP-doxorubicin: in data set [2], the “% metabolites released: Dox” value stood at 2%, the “% metabolites released: GP-dox” value is recorded as 0%, the “% metabolites released: P-Dox” value is reported as 2% and the total % metabolites amounted to 4%. In addition, in data set [1], the “% metabolites released: Dox” value is listed as 2%, the “% metabolites released: GP-dox” value was determined as 0%, the “% metabolites released: P-Dox” value turned out to be 1% and the total % metabolites is 3%.

As for PhAc-GPGP-doxorubicin, in data set [1], the “% metabolites released: Dox” value was found to be 6%, the “% metabolites released: GP-dox” value came out at 0%, the “% metabolites released: P-Dox” value is given as 0% and the total % metabolites is recorded as 6%.

Take PhAc-KLGP-doxorubicin: in data set [2], the “% metabolites released: Dox” value came out at 2%, the “% metabolites released: GP-dox” value stood at 1%, the “% metabolites released: P-Dox” value is on record as 0% and the total % metabolites came to 8%.
